Assay results as given in PMC3889502, “Inhibitory effects of monoterpenes on human TRPA1 and the structural basis of their activity” (The Journal of Physiological Sciences : JPS, 2013).

Chains of the proteins cited; added tags and fusions are not shown.
UniProt O75762, whole entry: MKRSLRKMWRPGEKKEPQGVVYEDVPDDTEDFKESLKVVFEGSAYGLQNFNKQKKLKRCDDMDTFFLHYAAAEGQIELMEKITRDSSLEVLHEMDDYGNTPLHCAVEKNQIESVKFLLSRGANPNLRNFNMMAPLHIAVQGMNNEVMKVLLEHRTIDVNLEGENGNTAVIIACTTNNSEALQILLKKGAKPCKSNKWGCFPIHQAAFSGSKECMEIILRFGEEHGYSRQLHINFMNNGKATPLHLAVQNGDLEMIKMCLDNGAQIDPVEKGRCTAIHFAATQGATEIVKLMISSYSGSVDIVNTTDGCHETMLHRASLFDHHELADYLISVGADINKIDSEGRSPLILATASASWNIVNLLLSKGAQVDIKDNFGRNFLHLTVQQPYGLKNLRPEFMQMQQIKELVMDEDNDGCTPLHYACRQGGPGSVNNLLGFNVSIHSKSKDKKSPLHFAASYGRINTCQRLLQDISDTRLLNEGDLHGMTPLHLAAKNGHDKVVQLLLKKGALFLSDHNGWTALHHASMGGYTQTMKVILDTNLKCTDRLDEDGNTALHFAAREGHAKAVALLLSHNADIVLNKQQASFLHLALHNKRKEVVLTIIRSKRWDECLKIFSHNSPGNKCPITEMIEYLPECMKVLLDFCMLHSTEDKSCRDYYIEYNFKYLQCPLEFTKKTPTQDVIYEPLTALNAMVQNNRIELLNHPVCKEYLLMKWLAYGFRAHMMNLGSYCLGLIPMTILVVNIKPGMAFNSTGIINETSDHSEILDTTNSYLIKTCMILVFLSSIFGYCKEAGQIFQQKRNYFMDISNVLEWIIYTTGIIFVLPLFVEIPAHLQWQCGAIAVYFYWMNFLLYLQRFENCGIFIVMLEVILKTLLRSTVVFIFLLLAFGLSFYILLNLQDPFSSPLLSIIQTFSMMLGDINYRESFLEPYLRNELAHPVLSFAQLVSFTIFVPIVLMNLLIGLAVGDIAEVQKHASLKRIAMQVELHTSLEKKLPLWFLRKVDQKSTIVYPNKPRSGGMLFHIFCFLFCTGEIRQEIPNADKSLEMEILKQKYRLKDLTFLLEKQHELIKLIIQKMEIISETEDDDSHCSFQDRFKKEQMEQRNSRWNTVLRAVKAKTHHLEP

Columns and labels:
[1] = target: T1, hTRPA1 (Homo sapiens, UniProt O75762); assay: Whole-cell patch-clamp: inhibition of agonist-induced hTRPA1 current; format: cell-based; conditions: AITC 20 μM, no extracellular Ca2+, mean ± SEM, n = 5-10, Hill fit
T1 construct: Full-length hTRPA1 was obtained from Life Technologies (Carlsbad, CA); host or cells: HEK293T
Protocol: Human embryonic kidney (HEK) 293T cells were maintained in DMEM (WAKO Pure Chemical Industries Ltd.) supplemented with 10 % fetal bovine serum (Biowest SAS, Caille, France), 100 U/mL penicillin (Life Technologies), 100 μg/mL streptomycin (Life Technologies), and 2 mM L-glutamine (GlutaMAX; Life Technologies) at 37 °C in 5 % CO2. For Ca^2+-imaging, 1 μg of plasmid DNA containing hTRPA1 in pcDNA3 in OPTI-MEM medium (Life Technologies) was transfected into HEK293T cells using Lipofectamine Plus Reagent (Life Technologies). Following incubation for 3–4 h, cells were reseeded on coverslips and incubated further at 37 °C in 5 % CO2.
Whole-cell patch-clamp recordings were performed 1 day after transfection. The standard bath solution was the same as that used in the Ca^2+-imaging experiments, and extracellular Ca^2+ was removed and 5 mM EGTA added for the recording of AITC-, menthol- and FFA-induced current responses. The pipette solution contained 140 mM KCl, 5 mM EGTA, and 10 mM HEPES, pH 7.4 (adjusted with KOH). Data from the whole-cell voltage-clamp recordings were sampled at 10 kHz and filtered at 5 kHz for analysis (Axon 200B amplifier with pCLAMP software; Axon Instruments, Sunnyvale, CA). The membrane potential was clamped at −60 mV for all conditions. […]
The current response was measured in the absence of extracellular Ca^2+ to minimize desensitization. […]

[2] = test system: vector-transfected HEK293T cells; assay: Ca2+-imaging in vector-transfected cells (control); format: cell-based, human; conditions: with or without menthol; cells responded normally to ionomycin 5 μM
Protocol: (§1) Ca^2+-imaging was performed 1 day after transfection. HEK293T cells on coverslips were mounted in an open chamber and superfused with a standard bath solution (140 mM NaCl, 5 mM KCl, 2 mM MgCl2, 2 mM CaCl2, 10 mM HEPES, and 10 mM glucose, pH 7.4). Cytosolic-free Ca^2+ concentrations in HEK293T cells were measured by dual-wavelength fura-2 (Molecular Probes, Invitrogen Corp.) microfluorometry with excitation at 340/380 nm and emission at 510 nm. The fura-2 ratio image was calculated and acquired using the IP-Lab imaging processing system (Scanalytics Inc, Fairfax, VA). Ionomycin was used to confirm cell viability in the vector-transfected cells.
Washing-out of the three compounds after menthol exposure led to small increases in the fura-2 ratio, which could be due to the loss of inhibition and resumption of hTRPA1 activity from residual menthol in the cell.
Supplementary file 12576_2013_289_MOESM1_ESM.jpg: Supplementary material 1 (JPEG 324 kb) Supplementary Figure 1. Effects of borneol, 2-methylisoborneol, fenchyl alcohol and norcamphor with or without menthol on cytosolic Ca ^2+ concentrations in vector-transfected HEK293T cells. […] (n = 48-75)

[3] = target: T1, hTRPA1; assay: Ca2+-imaging (fura-2): inhibition of menthol-induced cytosolic Ca2+ increase; format: cell-based; conditions: menthol 1 mM; test compound 1 mM; HEK293T cells expressing hTRPA1
Protocol: (§2) For Ca^2+-imaging, 1 μg of plasmid DNA containing hTRPA1 in pcDNA3 in OPTI-MEM medium (Life Technologies) was transfected into HEK293T cells using Lipofectamine Plus Reagent (Life Technologies). Following incubation for 3–4 h, cells were reseeded on coverslips and incubated further at 37 °C in 5 % CO2.
as §1, with “HEK293T cells on coverslips were mounted in an open chamber and superfused with a standard bath solution (140 mM NaCl, 5 mM KCl, 2 mM MgCl2, 2 mM CaCl2, 10 mM HEPES, and 10 mM glucose, pH 7.4).” left out
Data are presented as the mean ± SEM (n = 47–79)

[4] = target: T1, hTRPA1; assay: Ca2+-imaging (fura-2): activation by test compounds, normalized to menthol; format: cell-based; conditions: test compound 1 mM; HEK293T cells expressing hTRPA1
Protocol: as §2
as §1, with “HEK293T cells on coverslips were mounted in an open chamber and superfused with a standard bath solution (140 mM NaCl, 5 mM KCl, 2 mM MgCl2, 2 mM CaCl2, 10 mM HEPES, and 10 mM glucose, pH 7.4).” left out
In these experiments, changes in the fura-2 ratio (corresponding to cytosolic Ca^2+ concentrations) induced by the test compounds and menthol were compared because menthol, which activates hTRPA1, and the test compounds are members of the monoterpene family.
Data are presented as the mean ± standard error of the mean (SEM) (n = 27–67)

## CC12CCC(C1)C(C)(C)C2O (stereo not shown) [Fenchyl alcohol]
[1]
  IC50: 320 ± 60 µM
[2]
  Effect on fura-2 ratio in vector-transfected cells: did not provide any effect; also recorded: No changes in the fura-2 ratio
[3]
  Inhibition of the menthol-induced increase in fura-2 ratio: almost completely blocked
[4]
  Change in fura-2 ratio (340/380 nm) by test compound, normalized to the change by 1 mM menthol: small changes in the fura-2 ratio

## CC12CCC(CC1=O)C2(C)C (stereo not shown) [Camphor, reference compound]
[1]
  IC50: 1260 ± 320 µM
[3]
  Inhibition of the menthol-induced increase in fura-2 ratio: almost completely blocked; also recorded: blockage
[4]
  Change in fura-2 ratio (340/380 nm) by test compound, normalized to the change by 1 mM menthol: small changes in the fura-2 ratio; also recorded: failed to observe changes

“Also recorded” adds a separate entry of the source.
